Measured values: patent US9029386B2, “Pyridine derivatives useful as kinase inhibitors” (YM Biosciences Australia Pty Ltd, priority 2006, dated 2015)

Chains of the proteins cited; added tags and fusions are not shown. Residues count along the entry.
UniProt P10721, 552-976 limits assumed: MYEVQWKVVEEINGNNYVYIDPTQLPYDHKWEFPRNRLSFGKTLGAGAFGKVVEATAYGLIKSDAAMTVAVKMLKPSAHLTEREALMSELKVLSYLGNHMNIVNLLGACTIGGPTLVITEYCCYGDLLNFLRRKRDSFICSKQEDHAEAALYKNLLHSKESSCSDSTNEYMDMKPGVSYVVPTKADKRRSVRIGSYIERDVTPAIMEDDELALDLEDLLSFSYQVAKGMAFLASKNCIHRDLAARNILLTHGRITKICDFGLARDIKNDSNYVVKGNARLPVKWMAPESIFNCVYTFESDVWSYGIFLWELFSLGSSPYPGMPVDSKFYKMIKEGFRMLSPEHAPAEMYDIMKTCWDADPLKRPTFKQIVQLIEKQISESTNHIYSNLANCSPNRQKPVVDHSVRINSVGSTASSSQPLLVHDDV
UniProt P07333, 553-961 limits assumed: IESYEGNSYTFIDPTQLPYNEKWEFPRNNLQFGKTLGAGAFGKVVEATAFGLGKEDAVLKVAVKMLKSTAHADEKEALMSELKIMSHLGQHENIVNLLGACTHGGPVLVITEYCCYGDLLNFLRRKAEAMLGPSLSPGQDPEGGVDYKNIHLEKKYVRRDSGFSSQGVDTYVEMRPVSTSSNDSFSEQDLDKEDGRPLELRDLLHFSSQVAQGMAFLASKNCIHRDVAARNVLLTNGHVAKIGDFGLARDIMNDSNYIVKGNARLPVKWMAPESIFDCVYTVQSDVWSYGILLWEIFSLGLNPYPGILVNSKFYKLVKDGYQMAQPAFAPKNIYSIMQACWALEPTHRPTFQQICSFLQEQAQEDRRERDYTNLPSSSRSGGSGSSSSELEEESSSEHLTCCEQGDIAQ
UniProt P36888, 27-993 limits assumed: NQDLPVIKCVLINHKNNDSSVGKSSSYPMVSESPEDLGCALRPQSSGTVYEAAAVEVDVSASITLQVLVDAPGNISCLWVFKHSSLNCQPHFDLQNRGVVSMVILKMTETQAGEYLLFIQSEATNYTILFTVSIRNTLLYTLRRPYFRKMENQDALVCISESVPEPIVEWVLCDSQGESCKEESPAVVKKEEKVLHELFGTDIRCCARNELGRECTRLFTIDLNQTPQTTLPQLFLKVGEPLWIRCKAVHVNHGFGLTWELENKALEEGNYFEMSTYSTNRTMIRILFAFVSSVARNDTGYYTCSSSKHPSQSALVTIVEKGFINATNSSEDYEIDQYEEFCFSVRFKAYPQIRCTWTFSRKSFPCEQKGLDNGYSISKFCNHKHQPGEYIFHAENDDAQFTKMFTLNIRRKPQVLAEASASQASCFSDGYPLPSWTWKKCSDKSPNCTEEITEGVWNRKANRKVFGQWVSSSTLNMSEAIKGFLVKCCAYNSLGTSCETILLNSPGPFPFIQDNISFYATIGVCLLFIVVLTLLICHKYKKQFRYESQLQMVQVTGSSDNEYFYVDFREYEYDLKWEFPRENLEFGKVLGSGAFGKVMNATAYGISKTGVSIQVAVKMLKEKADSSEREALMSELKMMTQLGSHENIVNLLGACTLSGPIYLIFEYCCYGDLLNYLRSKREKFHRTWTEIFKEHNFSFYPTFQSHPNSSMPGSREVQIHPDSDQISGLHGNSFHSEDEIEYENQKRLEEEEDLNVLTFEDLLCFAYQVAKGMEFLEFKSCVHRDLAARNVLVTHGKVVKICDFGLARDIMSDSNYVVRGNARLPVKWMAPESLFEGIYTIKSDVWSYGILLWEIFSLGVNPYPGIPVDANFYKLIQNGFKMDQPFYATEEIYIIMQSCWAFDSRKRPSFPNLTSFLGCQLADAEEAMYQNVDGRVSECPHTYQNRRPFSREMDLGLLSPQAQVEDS
UniProt P09619, 33-1106 limits assumed: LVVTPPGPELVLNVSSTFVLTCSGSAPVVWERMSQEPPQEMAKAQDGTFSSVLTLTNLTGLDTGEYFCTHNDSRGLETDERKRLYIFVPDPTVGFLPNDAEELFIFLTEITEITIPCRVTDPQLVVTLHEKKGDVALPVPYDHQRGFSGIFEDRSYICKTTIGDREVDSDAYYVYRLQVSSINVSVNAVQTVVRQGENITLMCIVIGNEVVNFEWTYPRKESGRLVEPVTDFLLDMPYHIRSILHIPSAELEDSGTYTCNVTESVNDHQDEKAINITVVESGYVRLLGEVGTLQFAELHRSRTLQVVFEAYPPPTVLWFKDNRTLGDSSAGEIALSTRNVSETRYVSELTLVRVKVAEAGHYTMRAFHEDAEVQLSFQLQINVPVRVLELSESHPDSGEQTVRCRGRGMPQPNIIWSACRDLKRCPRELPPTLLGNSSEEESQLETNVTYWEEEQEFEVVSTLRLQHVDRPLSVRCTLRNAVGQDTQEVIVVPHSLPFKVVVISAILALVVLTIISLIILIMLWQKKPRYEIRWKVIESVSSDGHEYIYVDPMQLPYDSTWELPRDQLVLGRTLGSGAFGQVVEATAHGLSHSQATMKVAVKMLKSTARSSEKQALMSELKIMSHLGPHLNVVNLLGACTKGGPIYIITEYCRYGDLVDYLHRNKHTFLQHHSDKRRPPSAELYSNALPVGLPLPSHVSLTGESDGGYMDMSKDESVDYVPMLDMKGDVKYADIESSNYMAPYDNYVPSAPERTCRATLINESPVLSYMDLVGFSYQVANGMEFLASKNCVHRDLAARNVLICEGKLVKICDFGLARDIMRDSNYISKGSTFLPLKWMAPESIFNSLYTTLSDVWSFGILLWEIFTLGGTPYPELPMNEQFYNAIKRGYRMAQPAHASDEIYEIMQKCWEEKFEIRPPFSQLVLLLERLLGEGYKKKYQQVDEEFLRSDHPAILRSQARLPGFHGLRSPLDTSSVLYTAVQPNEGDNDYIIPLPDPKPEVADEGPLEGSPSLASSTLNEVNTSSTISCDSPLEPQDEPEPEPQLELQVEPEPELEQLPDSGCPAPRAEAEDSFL

Legend:
Baf3-WT = assay: Cellular assay (Alamar Blue), Baf3-WT with mouse IL-3; details: read-out: Baf3-WT; mouse IL-3 at 5 ng/ml, 72 hr
mNFS-60 = assay: Cellular assay (Alamar Blue), mNFS-60 with human M-CSF; details: read-out: mNFS-60; human M-CSF at 20 ng/ml, 72 hr
[1] = biological target: kinase domain of human c-kit (Homo sapiens, UniProt P10721); assay: Alphascreen protein tyrosine kinase assay, c-KIT; type: biochemical; details: read-out: c-KIT
[2] = biological target: kinase domain of human CSF1-R (Homo sapiens, UniProt P07333); assay: Alphascreen protein tyrosine kinase assay, CSF-1R; type: biochemical; details: read-out: CSF-1R
FLT-3 tyrosine kinase = FLT-3 tyrosine kinase (Homo sapiens, UniProt P36888); assay: Alphascreen protein tyrosine kinase assay, FLT-3; type: biochemical; details: read-out: Flt3
PDGFR β tyrosine kinase = PDGFR β tyrosine kinase (Homo sapiens, UniProt P09619); assay: Alphascreen protein tyrosine kinase assay, PDGFRβ; type: biochemical; details: read-out: PDGFRβ

## C[C@H](Nc1cncc(Cl)n1)c1cccc(NC(=O)c2cccc(C(F)(F)F)c2)c1 [Compound 114, (S)—N-(3-(1-(6-chloropyrazin-2-ylamino)ethyl)phenyl)-3-(trifluoromethyl)benzamide]
Baf3-WT
  pIC50: < 5.00
mNFS-60
  pIC50: > 5.00

## Cc1cccc(C(=O)Nc2cccc([C@H](C)Nc3cncc(-c4ccc(N5CCN(C)CC5)nc4)n3)c2)c1
[1]
  pIC50: > 7.00
[2]
  pIC50: > 7.00
FLT-3 tyrosine kinase
  pIC50: < 5.00
PDGFR β tyrosine kinase
  pIC50: > 6.00

pIC50: −log10 of the molar value.
